Reference: patent US4694007A (priority 1986, dated 1987)

Target: T1, PC DHFR (Pneumocystis carinii, UniProt P16184)
T1 sequence (P16184 1-206): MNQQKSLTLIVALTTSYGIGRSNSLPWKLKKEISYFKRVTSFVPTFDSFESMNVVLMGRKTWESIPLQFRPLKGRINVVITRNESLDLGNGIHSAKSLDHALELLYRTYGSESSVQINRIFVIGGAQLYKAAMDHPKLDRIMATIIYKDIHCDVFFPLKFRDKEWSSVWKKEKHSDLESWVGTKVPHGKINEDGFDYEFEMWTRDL

COc1cc(NCc2ccc3nc(N)nc(N)c3c2C)cc(OC)c1OC [Trimetrexate, 2,4-diamino-5-methyl-6-[(3,4,5-trimethoxyanilino)methyl]quinazoline]
Ability to compete with methotrexate for PC DHFR binding: considerably more potent
